Laboratory results from US4735943A, “Eburnamonine oxime derivatives, salts thereof, and pharmaceutical agents containing the same” (Sanwa Kagaku Kenkyusho Co., Ltd., priority 1984, dated 1988).

Experiments:
[1] = system: d,d-mice; assay: Cerebral Function Protection (recovery after rod dropped on vertex); type: in vivo, male; conditions: 10 mg/kg oral, 30 min before, negative values given as "not effective"
Procedure: (Cerebral Function Protection) To each of male d,d-mice (16-24 g, 6 to 24 animals/group), each of testing compounds was orally administered in an amount of 10 mg/kg. After 30 minutes from the administration, a cylindrical rod made of bakelite (diameter: 1 cm, weight: 36 g) was free dropped with a level height of 40 cm on a vertex of the mouse to hypnotize the same, in accordance with a method disclosed by […] et al ["Tyaku-no-Ayumi (The Progress in Medicines)", 104 (4), 253, 1978]. Observations were continued until a recovering reflex from the lethargy and a spontaneous motion appear to determine a reduction ratio of time period on such behavior appearances.

[2] = in vivo; conditions: mouse, male mice, oral, mortality after 72 hours

With `CCOC(=O)C1=C[C@]2(CC)CCCN3CCc4c(n1c1ccccc41)[C@@H]32` [vinpocetine, reference compound] the “Reduction ratio, time to appear spontaneous motion” value [1] was 40.4%, the “Reduction ratio, time to recover sit-up reflex” value [1] was 39.5% and the LD50 at 72 h [2] was 796 mg/kg.
